# Source: PubChem BioAssay AID526 (National Center for Advancing Translational Sciences (NCATS), 2006)
# The list shows a part of the results. Calls of active or inactive are those of the source. The call rests on the fitted dose curve; in most records, active means well fitted activation curve with a large enough effect (not every such curve was filed as active); inconclusive means small, poorly fitted or top-dose-only effect, or another doubt; inactive means no such curve, though single readings can be large or run the other way.
# Assay: Ubiquitin-GFP Assay
# Conditions: Ubiquitin-GFP reporter cells, proteasome inhibition, GFP fluorescence, untreated = 0%, 10 µM MG-132 = 100%; at 45.9 µM unless noted
# Excerpt: NIH Chemical Genomics Center [NCGC]
# NIH Molecular Libraries Screening Centers Network [MLSCN]
# The ubiquitin-proteasome pathway is present within all eukaryotic cells and plays roles in normal cellular functions and disease-related dysfunction. Proteins are tagged with a poly-ubiquitin chain that targets them for the proteasome, a multimeric protease, that degrades the protein into peptides and free ubiquitin. The proteasome has a key role in regulating cell cycle and growth and is known to control the levels of cyclins and CDK inhibitors as well as tumor suppressor proteins. Additionally, the activation of NF- B is controlled by ubiquitin-labeling and degradation of the inhibitory protein I B . […] With this in mind, proteasome inhibitors such as MG-132 and PS-341 have been used to inhibit tumor cell growth.
# A cellular assay for ubiquitin-proteasome function was used to find chemical probes of this pathway. The assay used an ubiquitin-GFP construct expressed in U2OS cells (BioImage). Under basal conditions little GFP can be detected as it is degraded by the proteasome. However, treatment of the cells with a proteasome inhibitor such as MG-132 results in a rise in GFP levels that can be detected in as little as four hours. We used the Acumen-Explorer laser plate cytometer having a 488 nm laser as an excitation light source to detect the GFP. Compounds were screened in 1536-well plates using qHTS with a concentration-titration series range that varied from 46 uM to 2.9 nM.
# NCGC Assay Protocol Summary:
# Cells (U20S ps 2042) expressing ubiquitin (G76V-GFP) were maintained in DMEM with Glutamax-1 and high glucose, 10% FBS, 1% (v/v) penicillin-streptomycin, 0.5 mg/mL Geneticin (G418). The cells were seeded in 1536-well plates using a solenoid-based dispenser at 700 cells/5ul in DMEM medium with Glutamax-1 and high glucose containing 0.5% FBS, w/o phenol red, 25 mM HEPES. The plates were incubated at 37 °C/5% CO2 overnight. Then 23 nl of MG-132 in DMSO was added to the control wells at a final concentration of 10 uM. Next, 23 nL of library compounds in DMSO were added to the sample wells. The plates were incubated for 4 hrs at 37 °C/5% CO2. Following this incubation the plates were read on the Acumen using a cell object definition of 15 to 100 um in width and depth and a window of Total Intensity of between 77,200 and 2,720,000 FLU to enumerate GFP-expressing cells.
# The %Activity was determined from the basal and MG-132 treated control wells. %Activity was determined by normalizing to the difference in signal between basal cells (0% Activity) and cells incubated with 10 uM of the proteasome inhibitor MG-132 (100% Activity). Concentration-response curves were fitted to the signals arising from the GFP fluorescence.
# Assay Protocol Summary Table
# Sequence Parameter Value Description
# 2. Time O/N 37C incubation
# 4. Compound 23 nL Libraries (46 uM to 2.9 nM)
# 5. Time 4 hr 37C incubation
# 6. Detector Acumen Total Intensity, GFP fluorescence (488 ex/515 em)
# Keywords: NIH Roadmap, MLSCN, MLI, MLSMR, BioImage, proteasome, ubiquitin-GFP, qHTS, NCGC
row,Structure (SMILES),activation (GFP accumulation)
1,N/C(=N\O)c1c(N)no[n+]1[O-],inactive: -2.6%
2,Fc1ccccc1NC1CCN(Cc2ccccc2)CC1,inactive: -19.5%
3,CCC(CO)(C(=O)OC1CN2CCC1CC2)c1ccccc1 (stereo not drawn),inactive: -4.98%
4,O=C(O)C1(Nc2ccccc2)CCN(Cc2ccccc2)CC1,inactive: -0.299% [at 9.17 µM]
5,CCOc1ncccc1C(=O)NCC1(N2CCOCC2)CCCCC1,inactive: -3.69%
6,O=C(OC1CN2CCC1CC2)C1c2ccccc2Oc2ccccc21 (stereo not drawn),inactive: 2.22%
7,N#CC1(Nc2ccccc2)CCN(CCc2ccccc2)CC1,inactive: -20.9%
8,NC1CCCCC1.NP(=O)(O)N(CCCl)CCCl,inactive: -6.15% [at 9.17 µM]
